GALK inh: inhibitors of human galactokinase | P51570 | Purified GALK, Kinase-Glo residual ATP luminescence | Potency, µM (titrated, usually from 57.5 µM), for the others: at the top dose activity change, negative = inhibition, hits mostly inhibitors | 270,000 tested, 0.007% active; note: potency is the fitted concentration of half-maximal effect; % is set by controls: 0 for no effect and ±100 for the full control effect
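Human GALK (5 nM) with 35 uM ATP and 100 uM galactose in 20 mM HEPES pH 8.0, 5 mM MgCl2, 60 mM NaCl, 1 mM DTT, 0.01% BSA. After 1 h at room temperature, leftover ATP was read by Kinase-Glo Plus luminescence.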
Nrf2 block: inhibitors of Nrf2 signaling; Potency, µM (highest dose often 46 µM), without a hit: top-dose activity change, negative = inhibition, usual class: inhibitors; AID 504444; A549 ARE-Fluc reporter, luciferase luminescence, 18-24 h; 360,000 tested, 2.1% active; note: potency is the fitted concentration of half-maximal effect; % is set by controls: 0 for no effect and ±100 for the full control effect; nearly all actives have a fitted effect of over 60% in size
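A549 ARE_Fluc cells (5000/well, 5% FBS OPTI-MEM) pre-incubated 2 h, then treated with compounds 18-24 h at 37C/5% CO2 in concentration-response. CellTiter-Fluor viability read first; BugLite luciferase luminescence after 15 min at room temperature gives Nrf2 activity.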
Nrf2 ARE act: activators of Nrf2 (ARE) signaling; AREc32 ARE-luciferase reporter (MCF7-derived line), luminescence, 24 h; Potency, µM (highest dose often 46.1 µM), without a hit: at the top dose activation, most hits filed as activators; 410,000 tested, 0.31% active; note: potency is the fitted concentration of half-maximal effect; % of control where 0% means no effect; nearly all actives have a fitted effect of over 65% in size
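AREc32_Fluc, 1000 cells/well, OPTI-MEM + 5% FBS, o/n 37 deg C 5% CO2; 23 nL cpd by pin tool, 24 hr; Steady-Glo 30 min RT, luminescence.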
miR-21 reporter: miR-21 reporter, rising signal. HeLa miR-21 FLuc reporter, luciferase, 48 h. Potency, µM (titrated, usually from 38.3 µM), without a hit: at the top dose reporter change, positive = more light. 340,000 tested, under 10 active. AID 2288; active = well fitted rising curve with a large enough effect; inconclusive = small, poorly fitted or top-dose-only effect; inactive = no such curve, though single readings can be large or run the other way;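 also: % of control where 0% means no effect; miR-21 action dims this reporter so a rising signal means less miR-21 action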
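Compounds were titrated across several concentrations (up to approximately 40 uM) and incubated 48 hours with HeLa miR-21-FLuc reporter cells (miR-21 target sequence downstream of FLuc, endogenous miR-21). Readout was firefly luciferase luminescence after lytic detection reagent.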
PI4K2A inh: blocks human PI4K2A kinase activity; Q9BTU6; purified PI4K2A, ADP-Glo luminescence, 1 h; active compounds read low; activity change, negative = inhibition, % at 76.9 µM; 420,000 tested, 0.13% active; in the data active = activity change below about -50%; inconclusive = mostly about -30% to -49%;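 note: -100% = wells without enzyme as full effect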
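Compounds are screened against recombinant PI4K2A using PI as substrate and ATP, the latter dispensed at 300 microM. Reactions run one hour at ambient temperature before ADP-Glo detection; full inhibition defined by wells lacking enzyme.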
A549 tox: A549 cytotoxicity, counter-screen for Nrf2 inhibitors | A549 ARE-Fluc cells, CellTiter-Fluor viability, 18-24 h | Potency, µM (highest dose often 46 µM), for inactives: at the top dose activity change, negative = cytotoxicity, most hits filed as inhibitors | 390,000 tested, 0.16% active; note: potency is the fitted concentration of half-maximal effect; % is set by controls: 0 for no effect and ±100 for the full control effect
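Cytotoxicity counterscreen: CellTiter-Fluor fluorescence was measured in A549 ARE_Fluc cells after 18-24 h of compound exposure in a concentration series. The subsequent BugLite luminescent read reports ARE-luciferase activity.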
* hit, by the source's call; ! = not active in a repeat; [ ] = another dose, or the depositor's remark. Sampled rows, rich in hits. Any-hit rate of the full collection: about 2.2%. Unless noted, calls come from the whole dose curve; as a rule, active = well fitted curve in the direction sought with a large enough effect; inconclusive = small, poorly fitted or top-dose-only effect, or another doubt; inactive = no such curve, though single readings can be large; an effect the other way counts as inactive or inconclusive.

`COc1ccccc1C(C[N+](=O)[O-])c1c(N)n(C)c(=O)n(C)c1=O` (stereo unspecified) gave Nrf2 block 11.6µM*, Nrf2 ARE act inconclusive, miR-21 reporter inconclusive, PI4K2A inh -11.7 and A549 tox inconclusive.
For COc1ccccc1C(c1c(N)n(C)c(=O)n(C)c1=O)C(C)[N+](=O)[O-] (stereo unspecified) the results were GALK inh 3.7%, Nrf2 block inconclusive, Nrf2 ARE act inconclusive, miR-21 reporter 5.9%, PI4K2A inh 5.2 and A549 tox -9.0%.
For COc1ccc2cc(C=O)ccc2c1 the results were PI4K2A inh -2.5.
`CCOC(=O)c1c(NC(C)=O)sc2c1CCC(C=O)=C2Sc1ccccc1` gave GALK inh 0.6%, Nrf2 block 20.6µM*, Nrf2 ARE act inconclusive, miR-21 reporter inconclusive, PI4K2A inh 1.8 and A549 tox inconclusive.
Screening CCOC(=O)c1c(NC(C)=O)sc2c1CCN(Cc1ccccc1)C2 returned Nrf2 block 13.4%, Nrf2 ARE act 0.8%, miR-21 reporter -0.2%, PI4K2A inh -4.1 and A549 tox 6.9%.
`CC(C)C[C@H]1COc2cc(Br)ccc2S(=O)(=O)N1Cc1cn(Cc2ccco2)nn1` gave PI4K2A inh 1.2.
For COc1ccc(CNC(=O)C2CCN(C(=O)c3ccc(-n4ccc5ccccc54)s3)CC2)cc1 the results were Nrf2 block 20.6µM*, Nrf2 ARE act 2.5%, miR-21 reporter 7.0%, PI4K2A inh -2.0 and A549 tox -25.1%.
For CN(C)c1ccc(CNC(=O)C2CCN(C(=O)c3ccc(-n4ccc5ccccc54)s3)CC2)cc1 the results were Nrf2 block 0.0%, Nrf2 ARE act 7.1%, miR-21 reporter -0.2%, PI4K2A inh -1.6 and A549 tox -16.9%.
`O=C(N/N=C/c1ccncc1)c1ccccn1` gave GALK inh 1.2%, Nrf2 block inconclusive, Nrf2 ARE act -0.6%, miR-21 reporter -38.0%, PI4K2A inh 0.5 and A549 tox 0.1%.
CN(C)c1ccc(/C=N/NC(=O)c2ccccn2)cc1 was read as GALK inh 18.7%, Nrf2 block inconclusive, Nrf2 ARE act -1.6%, miR-21 reporter 1.2%, PI4K2A inh -50.1* and A549 tox -10.1%.
Cc1cc(C)n2ncc(C(=O)NCC(C)C)c2n1 was read as Nrf2 block -6.1% and A549 tox 11.8%.
Screening CC[N+]1=C(C)C(C)(C)c2cc(C)ccc21 returned GALK inh 5.1%, Nrf2 block 10.3µM*, Nrf2 ARE act -0.9%, miR-21 reporter 23.2%, PI4K2A inh -5.3 and A549 tox -18.1%.
C=CCN=c1scc(-c2ccc3c(c2)NC(=O)CO3)n1/N=C(\C)c1ccccn1 was read as GALK inh 1.1%, Nrf2 block 16.4µM*, Nrf2 ARE act 8.3%, miR-21 reporter 21.4%, PI4K2A inh 1.2 and A549 tox inconclusive.
For CCOc1cc(/C=C2\SC(=N)N(c3nccs3)C2=O)ccc1OCCN1CCOCC1 the results were Nrf2 block 18.4µM*, Nrf2 ARE act 0.3%[9.22 µM], miR-21 reporter 17.2%, PI4K2A inh -3.4 and A549 tox 20.6µM*.
O=C(Nc1ccccc1)Nc1ncc([N+](=O)[O-])s1 was read as GALK inh -0.2%, Nrf2 block inconclusive, Nrf2 ARE act -0.1%, miR-21 reporter 27.6%, PI4K2A inh -0.5 and A549 tox 23.1µM*.
COC(=O)c1sc(NC(=S)NC(=O)c2cccc(Br)c2)nc1C was read as GALK inh 5.1%, Nrf2 block 21.1%, Nrf2 ARE act 15.8µM*, miR-21 reporter -30.2%, PI4K2A inh 1.5 and A549 tox -0.2%.
`COC(=O)c1sc(NC(=S)NC(=O)c2ccc(F)cc2)nc1C` gave GALK inh -2.6% and miR-21 reporter -7.3%.
CCN(CC)C(=O)C1CCCN(c2ncnc3c2cnn3-c2ccc(Cl)cc2)C1 (stereo unspecified) was read as Nrf2 block 20.6µM*, Nrf2 ARE act -3.6%, miR-21 reporter 24.9%, PI4K2A inh -0.1 and A549 tox -0.6%.
`CC1CCCC(NC(=O)NC(=O)CCl)C1C` (stereo unspecified) gave GALK inh 0.3%, Nrf2 block -1.6%, Nrf2 ARE act inconclusive, miR-21 reporter 23.8%, PI4K2A inh 1.7 and A549 tox 1.0%.
CC1CCCCC1NC(=O)NC(=O)CCl (stereo unspecified) was read as GALK inh 1.3%, Nrf2 block -0.5%, Nrf2 ARE act 14.1µM*, miR-21 reporter 19.5%, PI4K2A inh 1.5 and A549 tox -9.7%.
`COc1cccc(-c2nnc3n2N=C(c2c(OC)cccc2OC)CS3)c1OC` gave Nrf2 block -5.6% and A549 tox -1.4%.
Screening CCCCOC(=O)c1cccc(NC(=O)/C=C/c2ccccc2Cl)c1 returned Nrf2 block 20.6µM*, Nrf2 ARE act -1.8%, miR-21 reporter inconclusive, PI4K2A inh -7.5 and A549 tox -0.6%.
Screening COc1cccc(C2=Nn3c(nnc3-c3cc(OC)cc(OC)c3)SC2)c1 returned Nrf2 block inconclusive and A549 tox -8.8%.
`C=C(C)Cn1c(SCC(=O)N/N=C(\C)c2ccc([N+](=O)[O-])cc2)nnc1-c1ccc(Br)cc1` gave PI4K2A inh -2.5.

Ordered by number of heavy atoms (rising): three of the compounds above.
Screening CCCCOC(=O)c1cccc(NC(=O)/C=C/c2ccccc2Cl)c1 returned Nrf2 block 20.6µM*, Nrf2 ARE act -1.8%, miR-21 reporter inconclusive, PI4K2A inh -7.5 and A549 tox -0.6%.
Screening COc1cccc(C2=Nn3c(nnc3-c3cc(OC)cc(OC)c3)SC2)c1 returned Nrf2 block inconclusive and A549 tox -8.8%.
CCN(CC)C(=O)C1CCCN(c2ncnc3c2cnn3-c2ccc(Cl)cc2)C1 (stereo unspecified) was read as Nrf2 block 20.6µM*, Nrf2 ARE act -3.6%, miR-21 reporter 24.9%, PI4K2A inh -0.1 and A549 tox -0.6%.

(continued)
`O=C(Oc1coc(CSc2ncccn2)cc1=O)c1ccc([N+](=O)[O-])cc1` gave PI4K2A inh 2.0.
Screening O=C(Nc1ccc(C(=O)N2CCCC2)cc1)c1ccccc1F returned GALK inh 10.7%, Nrf2 ARE act -0.9%, miR-21 reporter -48.6%, PI4K2A inh -70.3* and A549 tox 4.9%.
CCOC(=O)CNC(=O)CSc1nnc(-c2ccc(C(C)(C)C)cc2)n1-c1ccc(Cl)cc1 was read as PI4K2A inh 3.0.
Screening Cc1ccccc1S(=O)(=O)Cc1ccc(C(=O)NC2CC2)o1 returned GALK inh -1.6%, Nrf2 block 20.6µM*, Nrf2 ARE act 0.1%, miR-21 reporter -1.5%, PI4K2A inh -0.7 and A549 tox inconclusive.
`COc1ccc(S(=O)(=O)Cc2ccc(C(=O)NC3CCCCC3)o2)cc1` gave GALK inh -2.5%, Nrf2 block 14.6µM*!, Nrf2 ARE act 0.0%, miR-21 reporter -0.8%, PI4K2A inh -5.5 and A549 tox 0.5%.
For COc1ccc(S(=O)(=O)Cc2ccc(C(=O)NC3CC3)o2)cc1 the results were GALK inh 1.4%, Nrf2 block 1.3%, Nrf2 ARE act -1.0%, miR-21 reporter -1.0%, PI4K2A inh 4.0 and A549 tox -7.4%.

From PubChem BioAssay
